AlphaSeq binding of Ab-14 heavy chain variants to a spike HR2 peptide

Data: MIT Lincoln Laboratory AlphaSeq set, Engelhart et al. 2022, doi:10.1038/s41597-022-01779-4, as distributed in FLAb.

Antigen: PDVDLGDISGINAS, a 14-residue peptide of the SARS-CoV-2 spike HR2 region.

Each scFv is VH, a 15-residue (Gly4Ser)3 linker, VL, as in the parent Ab-14, and differs from it in the CDRs of the heavy chain only.
VH: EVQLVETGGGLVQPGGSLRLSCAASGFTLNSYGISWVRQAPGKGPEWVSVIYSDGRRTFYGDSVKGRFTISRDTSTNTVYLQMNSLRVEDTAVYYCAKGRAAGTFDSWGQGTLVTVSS
VL: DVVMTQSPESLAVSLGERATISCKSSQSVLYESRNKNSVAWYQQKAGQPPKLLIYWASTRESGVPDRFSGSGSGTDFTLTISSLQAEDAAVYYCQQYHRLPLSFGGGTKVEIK

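The parent was found by panning a naive human phage display library on the peptide. Variants in AAYL49 differ from the parent at up to three CDR positions; double and triple changes were sampled at random. The scFvs were displayed on barcoded MATa yeast, the peptide on MATalpha yeast. Binding brings cells together so that they mate, and sequencing counts the barcode pairs among the diploids. Scores were corrected for input abundance and mapped to Kd with protein pairs of known affinity run in the same pool. The assay was run in three technical replicates.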

Each variant is given by its three heavy chain CDRs, as the data file delimits them; those of the parent are GFTLNSYGIS, VIYSDGRRTFYGDSVK, GRAAGTFDS. Affinities are written as log10 Kd with Kd in nM; a lower number is a better binder. Replicates are averaged; those with no signal do not enter the mean. "nd" means that the variant was in the library but no mating with the target was seen in that replicate; the authors take this as a sign of poor binding, and no number exists. Three control strains display no target. For library AAYL49, 15% of the pairings with them gave a signal, with a median of 4.06 and one signal in twenty below 2.83, so weak values seen in few replicates may be background. For each scFv, signals with the empty controls are counted beside the result, with their mean in brackets.

CDR-H1,CDR-H2,CDR-H3,"replicates, log10 nM","log10 Kd (nM), mean",control signals
GFTLNEYGIS,VIYSDGRRTFYTDSVK,GRFAGTFDS,-0.30 / 0.09 / -0.13,-0.11,4 of 9 (4.55)
GFNLNYYGIS,VIYSDGRRTFYGDSNK,GRAAGTFDS,4.57 / nd / nd,4.57,1 of 9 (3.84)
GFTLPSQGIS,VIYSDGRRTFYGISVK,GRAAGTFDS,nd / nd / nd,nd,1 of 9 (4.19)
GFTLNSYGIS,VIYSDGRRTFYGDSRK,GRCAGTMDS,nd / nd / nd,nd,0 of 9
GPTHNSYGIS,VIYSDGRRTFYGDSVK,GGAAGTFDS,4.86 / 3.87 / nd,4.37,3 of 9 (4.06)
GWTLNSYGIS,VIYMDGRRTFYGDSVK,GRCAGTFDS,nd / nd / nd,nd,0 of 9
GFTLNSYGIS,VIYSDGRPTCYGDSVK,GRAAGTVDS,nd / nd / nd,nd,1 of 9 (2.92)
GFTLNSYGIS,VIQSKGRRTFYWDSVK,GRAAGTFDS,nd / nd / nd,nd,0 of 9
GFTLNLYGIQ,LIYSDGRRTFYGDSVK,GRAAGTFDS,nd / nd / nd,nd,4 of 9 (4.59)
GFTLNSYGIS,VIRSDLRRTFYGDSVK,GWAAGTFDS,nd / nd / nd,nd,0 of 9
GFTLNSYGIS,VIYSDGRRCFYGDSVL,GRATGTFDS,5.58 / 3.37 / 3.03,3.99,0 of 9
GFTLNSYWIS,VIYSDGRRTRYGDSVK,GRAAGTFDS,nd / 5.34 / nd,5.34,6 of 9 (4.49)
GFTLNSYGIS,VAYSDGRRTFYGDSVK,MRAAITFDS,nd / nd / 5.55,5.55,3 of 9 (4.53)
RFTLNSYGIS,VIYSDGRRTPYGDSVK,GRAAGTFMS,nd / nd / nd,nd,0 of 9
GFTLHTYGIS,VIYSDGRRTFYGDSVK,GAAAGTFDS,nd / nd / 2.65,2.65,1 of 9 (3.52)
GFTKNSYSIC,VIYSDGRRTFYGDSVK,GRAAGTFDS,nd / nd / nd,nd,2 of 9 (3.56)
GFTLNSYGIS,VIYSDGYRTFYGDSVK,GVAAGTFRS,nd / nd / nd,nd,0 of 9
GFTLNSYGIS,VIYADGRRTFYGDSVT,GRAANTFDS,0.97 / 0.91 / 1.00,0.96,3 of 9 (4.51)
GFTLNSYGIS,VIYSDGRRKFYGDSVK,MRAAGTFDS,nd / 3.33 / nd,3.33,3 of 9 (4.79)
GFTLNHYGIS,VIYSDGRETFYGDSVI,GRAAGTFDS,nd / nd / nd,nd,1 of 9 (4.10)
GFTLNSYGIS,VIYSDGYRTFTGDSVK,GRVAGTFDS,0.99 / 1.02 / 1.09,1.03,1 of 9 (4.12)
GFILNSYGIS,VIYSDGRRTFYGDSVK,GRPAGTFDS,2.75 / 3.04 / 4.97,3.59,4 of 9 (3.88)
GFTLNSYGIS,VIYWDGRRTFYGDSVK,GRAAGTFDQ,1.70 / 2.09 / 1.40,1.73,0 of 9
GFTGWSYGIS,VIYSDGRRTFYGDSVK,GRAAGEFDS,nd / nd / nd,nd,0 of 9
GFTLTSYGIS,VIYSDGRRTFYGDSVK,GRAAGTRDS,nd / 4.93 / nd,4.93,1 of 9 (4.04)
GFELNSYGIS,NIYSDGRRTFYGDSVK,GRAAGTFDS,nd / 4.12 / nd,4.12,2 of 9 (3.87)
GFTLNSYGIS,VIYSDGRRYFYGDSVK,GRAIGRFDS,nd / nd / nd,nd,0 of 9
AFTLNSYGGS,VIYSDGRRTFYGDSVK,GRAAFTFDS,nd / nd / nd,nd,0 of 9
GFTLNSYGIS,VIYSDGRITFYGASVK,GGAAGTFDS,nd / nd / nd,nd,1 of 9 (2.44)
GFTLNSYSRS,VIYSDGRRTFYGDSVK,GRAAGTVDS,nd / nd / nd,nd,1 of 9 (4.67)
GFTLNSSGIS,VIYSDGRRPFYGDTVK,GRAAGTFDS,5.11 / nd / nd,5.11,0 of 9

The last 2 entries again:

| CDR-H1 | CDR-H2 | CDR-H3 | replicates, log10 nM | log10 Kd (nM), mean | control signals |
|---|---|---|---|---|---|
| GFTLNSYSRS | VIYSDGRRTFYGDSVK | GRAAGTVDS | nd / nd / nd | nd | 1 of 9 (4.67) |
| GFTLNSSGIS | VIYSDGRRPFYGDTVK | GRAAGTFDS | 5.11 / nd / nd | 5.11 | 0 of 9 |